The record followed here is article PMC8237303 (Heliyon, 2021).

Amino acid sequences for entries named in this document (tags omitted). A change or cut given only in a name is not applied to a line headed by its entry.
UniProt P35462, whole entry: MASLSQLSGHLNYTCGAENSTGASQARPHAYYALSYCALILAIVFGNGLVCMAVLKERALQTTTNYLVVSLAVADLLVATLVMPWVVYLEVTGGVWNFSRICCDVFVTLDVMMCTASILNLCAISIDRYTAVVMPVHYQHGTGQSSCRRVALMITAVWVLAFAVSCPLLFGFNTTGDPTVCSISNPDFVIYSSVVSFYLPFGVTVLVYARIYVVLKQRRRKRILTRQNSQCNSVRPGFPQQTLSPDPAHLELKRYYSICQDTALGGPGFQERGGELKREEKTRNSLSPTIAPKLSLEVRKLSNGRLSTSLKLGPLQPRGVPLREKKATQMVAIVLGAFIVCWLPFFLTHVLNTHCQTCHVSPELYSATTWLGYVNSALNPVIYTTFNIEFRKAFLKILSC
UniProt P49146, whole entry: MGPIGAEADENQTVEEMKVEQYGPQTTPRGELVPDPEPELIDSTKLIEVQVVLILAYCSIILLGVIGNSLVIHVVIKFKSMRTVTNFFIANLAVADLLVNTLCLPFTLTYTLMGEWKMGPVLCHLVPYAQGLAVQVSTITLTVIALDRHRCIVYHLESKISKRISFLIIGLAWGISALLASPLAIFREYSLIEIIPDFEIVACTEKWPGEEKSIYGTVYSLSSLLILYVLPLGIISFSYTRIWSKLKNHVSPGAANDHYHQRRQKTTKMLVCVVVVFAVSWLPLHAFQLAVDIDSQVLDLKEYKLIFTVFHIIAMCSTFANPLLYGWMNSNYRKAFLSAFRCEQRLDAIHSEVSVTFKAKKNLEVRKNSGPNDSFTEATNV
UniProt P35372, whole entry: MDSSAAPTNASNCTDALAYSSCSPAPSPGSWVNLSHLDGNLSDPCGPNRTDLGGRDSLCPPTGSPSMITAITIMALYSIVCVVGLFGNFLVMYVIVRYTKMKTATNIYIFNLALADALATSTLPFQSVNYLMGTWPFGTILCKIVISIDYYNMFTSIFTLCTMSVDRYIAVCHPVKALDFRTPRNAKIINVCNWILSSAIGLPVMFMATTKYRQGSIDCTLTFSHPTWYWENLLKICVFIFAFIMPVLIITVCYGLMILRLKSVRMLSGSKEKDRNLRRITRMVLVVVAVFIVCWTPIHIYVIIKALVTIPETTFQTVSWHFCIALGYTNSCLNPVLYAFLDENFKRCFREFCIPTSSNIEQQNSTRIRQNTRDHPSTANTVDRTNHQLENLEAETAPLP
UniProt P08172, whole entry: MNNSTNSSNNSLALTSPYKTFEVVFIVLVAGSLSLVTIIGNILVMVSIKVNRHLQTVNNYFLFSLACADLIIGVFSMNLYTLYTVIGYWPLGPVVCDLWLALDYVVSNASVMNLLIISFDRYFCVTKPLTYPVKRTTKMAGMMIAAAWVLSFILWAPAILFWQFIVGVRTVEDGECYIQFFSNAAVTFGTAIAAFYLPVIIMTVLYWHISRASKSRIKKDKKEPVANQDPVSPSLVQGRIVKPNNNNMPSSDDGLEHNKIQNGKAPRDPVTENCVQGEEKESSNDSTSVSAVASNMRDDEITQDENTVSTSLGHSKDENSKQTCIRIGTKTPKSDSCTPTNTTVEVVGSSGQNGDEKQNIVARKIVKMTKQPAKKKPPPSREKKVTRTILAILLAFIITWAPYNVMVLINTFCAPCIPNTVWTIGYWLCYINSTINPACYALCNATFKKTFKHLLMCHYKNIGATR
UniProt Q9Y5N1: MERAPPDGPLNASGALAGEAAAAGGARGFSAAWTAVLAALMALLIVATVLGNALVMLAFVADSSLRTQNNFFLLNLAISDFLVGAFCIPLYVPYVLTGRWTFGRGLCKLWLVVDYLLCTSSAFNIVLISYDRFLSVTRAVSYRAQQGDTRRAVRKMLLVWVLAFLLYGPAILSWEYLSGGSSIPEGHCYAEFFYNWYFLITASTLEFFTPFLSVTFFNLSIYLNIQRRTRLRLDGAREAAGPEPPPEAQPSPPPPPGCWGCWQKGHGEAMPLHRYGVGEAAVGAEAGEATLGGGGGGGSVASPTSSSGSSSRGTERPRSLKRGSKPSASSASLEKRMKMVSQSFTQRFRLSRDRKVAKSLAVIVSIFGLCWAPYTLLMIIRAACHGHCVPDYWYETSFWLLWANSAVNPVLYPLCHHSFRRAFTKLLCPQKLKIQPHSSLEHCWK

Assay [1] has as its target Dopamine D3 receptor (Human) (Homo sapiens, UniProt P35462). The experiment in a line: R-. Type of assay: binding. Particulars: Human recombinant.
Assay [2] has as its target Neuropeptide Y2 receptor (Human) (Homo sapiens, UniProt P49146). The experiment in a line: [125I]-Peptide YY. Type of assay: binding. Particulars: Human receptor (Non-recombinant).
For assay [3], the target named is Opiate μ receptor (Human) (Homo sapiens, UniProt P35372). The experiment in a line: [3H]-Diprenorphine binding assay. The following applies: Human recombinant.
For assay [4], the target named is Muscarinic M2 receptor (Human) (Homo sapiens, UniProt P08172). Nature of the assay: [3H]-Scopolamine Methyl Chloride binding assay. The following applies: Human recombinant.
The target in assay [5] is Histamine H3 receptor (Human) (Homo sapiens, UniProt Q9Y5N1). The experiment in a line: N-alpha-[3H]-Methylhistamine, Dihydrochloride binding assay. The following applies: Human recombinant.

`CCCN(CCC)C1CCc2ccc(O)cc2C1` (racemic) [(±)-7-Hydroxy-2-(di-n-propylamino)tetralin]: in assay [1], the “Inhibition by a positive substance (%)” value turned out to be 100%.

Regarding Neuropeptide Y human, the “Inhibition by a positive substance (%)” value in assay [2] is listed as 98.66%.

With “[D-Ala 2, N–Me-Phe 4, Gly5-ol]-Enkephalin acetate salt”, in assay [3], the “Inhibition by a positive substance (%)” value was 100%.

On to `CN1C2CCC1CC(OC(=O)C(CO)c1ccccc1)C2.CN1C2CCC1CC(OC(=O)C(CO)c1ccccc1)C2.O.O=S(=O)(O)O` (centres unmarked) [Atropine sulfate salt monohydrate], for which the “Inhibition by a positive substance (%)” value in assay [4] is reported as 99.97%.

On to `C[C@@H](N)Cc1c[nH]cn1.Cl.Cl` [(R) (−)-α-Methylhistamine dihydrochloride], for which the “Inhibition by a positive substance (%)” value in assay [5] is on record as 100%.
